These are literature values, as cited in US20250340667A1, “Cancer Treatment comprising an anti-MSLN/CD137 antibody and a chemotherapeutic” (Merck Patent GmbH, priority 2022, published 2025).

Chains of the proteins cited; added tags and fusions are not shown. Residues count along the entry.
UniProt Q07011, 24-255: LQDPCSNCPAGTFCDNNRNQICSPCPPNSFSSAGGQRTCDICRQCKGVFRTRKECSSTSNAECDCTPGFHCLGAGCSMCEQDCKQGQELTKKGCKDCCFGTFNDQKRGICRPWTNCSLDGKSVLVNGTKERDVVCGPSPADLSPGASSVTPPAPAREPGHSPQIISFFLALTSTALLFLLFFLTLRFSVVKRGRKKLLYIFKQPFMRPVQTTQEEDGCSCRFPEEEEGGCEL

For the data set, the target named is T1, CD137 (Homo sapiens, UniProt Q07011).
T1 construct: Clinical studies of both utomilumab and urelumab monotherapy were however suspended; host or cells: patients (endogenous CD137)
As to conditions: monotherapy clinical studies, suspended; cited from earlier work.

For “utomilumab: 1st generation CD137 agonist antibody”, the clinical efficacy entry was “low efficacy”.
